The values that follow come from patent US20060106064A1, “Butyrophenones and sigma-1 receptor antagonists protect against oxidative-stress” (University of North Texas Health Science Center at Fort …, priority 2004, published 2006).

By UniProt entry, the sequences of proteins in these tests, tags left out.
UniProt Q99720, whole entry: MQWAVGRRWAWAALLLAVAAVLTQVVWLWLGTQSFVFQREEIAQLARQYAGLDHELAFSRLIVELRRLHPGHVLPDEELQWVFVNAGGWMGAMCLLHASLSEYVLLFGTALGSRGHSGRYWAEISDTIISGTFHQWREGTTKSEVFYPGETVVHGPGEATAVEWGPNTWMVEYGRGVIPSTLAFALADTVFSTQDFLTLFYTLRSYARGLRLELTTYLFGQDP

The test deals with human Sigma-1 receptor (Homo sapiens, UniProt Q99720). As to the kind of experiment: [3H]-(+)-pentazocine binding to MCF-7 cells stably expressing the cloned human Sigma-1 receptor. The settings on record: read-out: Affinity for the cloned Sigma-1 receptor (Ki ± SEM); Table 4.

For orientation: Ki means the equilibrium dissociation constant of an inhibitor or competing ligand from its target. Turning to `Clc1ccc(N2CCN(Cc3c[nH]c4ncccc34)CC2)cc1` [L745870, 3-((4-(4-Chlorophenyl)piperazin-1-yl)-methyl)-1H-pyrrolo-2,3-b-pyridine], the Ki is 63 ± 13 nM.
